Results taken from US20220265579A1, “COMPOSITION FOR PREVENTING OR TREATING CARDIO-CEREBROVASCULAR DISEASE COMPRISING AUTOPHAGY ACTIVATOR AS ACTIVE INGREDIENT” (VASTHERA CO. LTD., priority 2019, published 2022).
Entries after “also recorded” stand apart in the source; their conditions may differ.

The chains behind the UniProt entries cited, without tags or fusion partners.
UniProt P21796, whole entry, species assumed: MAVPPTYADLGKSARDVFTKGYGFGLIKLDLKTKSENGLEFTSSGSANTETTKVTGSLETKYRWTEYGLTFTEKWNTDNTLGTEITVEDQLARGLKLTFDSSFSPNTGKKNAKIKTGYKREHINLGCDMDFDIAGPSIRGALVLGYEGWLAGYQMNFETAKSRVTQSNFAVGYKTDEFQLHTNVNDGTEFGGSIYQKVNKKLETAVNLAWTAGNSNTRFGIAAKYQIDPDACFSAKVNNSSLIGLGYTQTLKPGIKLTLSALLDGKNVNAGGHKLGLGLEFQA

Assays:
[1] = tested on: autophagic vacuoles; experiment: MDC fluorescence staining of autophagic vacuoles; assay type: cell-based; settings: FIG. 1C
[2] = tested on: smooth muscle cells (SMC); settings: 0 μM to 20 μM, 72 hours, MTT, FIG. 4A
[3] = tested on: MEFs (mouse embryonic fibroblasts); settings: FIG. 3H
[4] = tested on: AMPK; experiment: Immunoblotting of AMPK phosphorylation (p-AMPK/AMPK); assay type: cell-based; settings: compared to rapamycin, FIG. 2A/2B
[5] = tested on: autophagy; settings: nanomolar concentration level
[6] = molecular target: VDAC1 (Homo sapiens, UniProt P21796); settings: DARTS, 20 minutes or more, FIG. 3B

CN[C@H]1CC[C@@H](c2ccc(Cl)c(Cl)c2)c2ccccc21 [sertraline]
quantity of LC3 expressed (MDC staining) relative to indatraline [1]: about 1.5 times
proliferation of smooth muscle cells [2]: the proliferation of the smooth muscle cells is more greatly inhibited
cell proliferation of wild-type MEFs [3]: continuously inhibited
cell proliferation maintained in MEFs without VDAC1 ([3]; about 10 μM, 72nd hour): ≥ 50%
p-AMPK/AMPK ratio / AMPK phosphorylation [4]: relatively high p-AMPK/AMPK; also recorded: inducing AMPK activity
autophagy induction at nanomolar concentration [5]: does not induce autophagy
stability of VDAC1 to pronase at nanomolecule concentration [6]: but not VDACI
